Assay results as given in article PMC9103596, “The inhibitory effect of boric acid on hypoxia-regulated tumour-associated carbonic anhydrase IX” (Journal of Enzyme Inhibition and Medicinal Chemistry, 2022).
Read-outs that look alike come from different tables or passages of the source.

Experiments:
[1] = tested on: CA IX levels in A375 cells; details: treated at IC50 concentration for 24 h, ELISA
[2] = tested on: CA IX levels in HT29 cells; details: treated at IC50 concentration for 24 h, ELISA

For CC(=O)Nc1nnc(S(N)(=O)=O)s1 [AAZ, acetazolamide, reference compound], the “CA IX levels compared to control” value ([1]; A375 hypoxic cell cultures) was “significantly reduced”, the “CA IX levels compared to control” value ([1]; A375 normoxic cell cultures) was “significantly reduced” and the “CA IX levels compared to control” value ([2]; HT29 hypoxic cell cultures) was “decrease”. The “CA IX levels compared to control” value ([2]; HT29 normoxic cell cultures) was “significantly reduced”.
